{
  "source": "patent US6858402B2",
  "about": "(The Regents of the University of California, priority 1996, dated 2005)",
  "tested_on": "Meth A tumors",
  "test": "Necrotizing activity of human TNF on Meth A tumors in vivo",
  "set-up": "species or system BALB/c mice",
  "details": "Group 1: TNF 1 μg/mouse intravenously, Day 8",
  "protocol": "Generally, on Day 0, cutaneous Meth A tumors were produced on the abdominal wall of fifteen BALB/c mice by intradermal injection of 2×20^5 Meth A tumor cells.\nOn Day 8, tumor necrosis was measured with the following results: […]",
  "data": [
    {"substance": "TNF: recombinant human tumor necrosis factor provided by Synergen Inc.", "values": [
      {"measurement": "% of necrosis", "result": "100 (5/5) %"}
    ]}
  ]
}
